Assay results reported in US11147884B2, “Inhibitors of NHE-mediated antiport” (Ardelyx, Inc., priority 2017, dated 2021).

Biological target: T1, NHE3 (Homo sapiens, UniProt P48764)
T1 construct: the increase in NHE3 expression after differentiation; endogenous in cells; host or cells: enterocytes (differentiated human ileum organoid monolayer cultures)
T1 sequence (P48764 26-834): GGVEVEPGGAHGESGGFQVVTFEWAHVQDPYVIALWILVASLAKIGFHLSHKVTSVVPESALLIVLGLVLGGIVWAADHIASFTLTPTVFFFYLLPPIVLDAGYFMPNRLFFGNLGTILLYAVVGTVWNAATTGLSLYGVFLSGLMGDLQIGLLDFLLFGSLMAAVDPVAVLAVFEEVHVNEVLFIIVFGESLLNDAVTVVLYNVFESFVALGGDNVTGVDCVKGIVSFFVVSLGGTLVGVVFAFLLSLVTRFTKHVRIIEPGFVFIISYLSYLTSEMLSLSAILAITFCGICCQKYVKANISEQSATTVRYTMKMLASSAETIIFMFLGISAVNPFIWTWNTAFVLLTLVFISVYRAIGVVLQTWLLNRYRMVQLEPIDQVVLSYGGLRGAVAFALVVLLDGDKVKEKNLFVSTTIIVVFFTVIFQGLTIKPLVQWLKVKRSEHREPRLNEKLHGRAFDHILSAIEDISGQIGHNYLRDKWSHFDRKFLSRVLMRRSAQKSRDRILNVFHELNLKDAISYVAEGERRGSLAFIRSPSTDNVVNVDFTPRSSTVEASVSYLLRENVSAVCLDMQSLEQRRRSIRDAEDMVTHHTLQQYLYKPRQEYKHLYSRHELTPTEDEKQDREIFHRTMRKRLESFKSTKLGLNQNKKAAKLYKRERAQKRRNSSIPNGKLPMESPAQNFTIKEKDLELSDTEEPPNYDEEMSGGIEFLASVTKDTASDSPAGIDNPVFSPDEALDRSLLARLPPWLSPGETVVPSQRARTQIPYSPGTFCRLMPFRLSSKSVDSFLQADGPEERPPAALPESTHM
Assay: NHE3 activity in enterocytes by intracellular pH recovery following acid loading
Format: cell-based

## FCCP
  inhibition of NHE3 activity in enterocytes: neither nigericin, BAM15 nor FCCP inhibited NHE3 activity
